# PubChem BioAssay AID2168 (The Scripps Research Institute Molecular Screening Center, 2009)
# The chains behind the UniProt entries cited, without tags or fusion partners.
# UniProt Q07820, whole entry, looked up: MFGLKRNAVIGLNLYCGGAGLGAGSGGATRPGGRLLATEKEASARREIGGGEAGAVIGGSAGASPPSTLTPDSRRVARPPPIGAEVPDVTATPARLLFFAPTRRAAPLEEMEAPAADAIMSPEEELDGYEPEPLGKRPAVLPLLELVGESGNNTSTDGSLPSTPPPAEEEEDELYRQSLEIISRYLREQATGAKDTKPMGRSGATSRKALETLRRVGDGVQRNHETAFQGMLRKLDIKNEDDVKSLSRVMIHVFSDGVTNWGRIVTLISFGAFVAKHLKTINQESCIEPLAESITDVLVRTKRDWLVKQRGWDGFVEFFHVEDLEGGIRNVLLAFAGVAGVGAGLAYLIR
# The entries are a selection whose mix differs from that of the whole data set. The source made the active and inactive calls.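 How the source made its calls: active means inhibition above the average of all tested compounds plus 3 SD (cut at about 40% in these data); inactive means the rest.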
# Target: Induced myeloid leukemia cell differentiation protein Mcl-1 (Homo sapiens) (UniProt Q07820)
# Assay: inhibitors of MCL1 binding to BIM-BH3, confirmation, biochemical, fluorescence polarization, triplicate (AID 2168);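 further: 0% = DMSO wells and 100% = unlabeled Bim-BH3 control peptide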
# Details: GST-MCL1 / FITC-Bim-BH3 fluorescence polarization; at 10.9 µM; active compounds read high
row,SMILES,inhibition
1,CS(=O)(=O)c1cc([N+](=O)[O-])c2no[n+]([O-])c2c1,active: 69.3%
2,O=C(OC1CN2CCC1CC2)c1ccc(Cl)cc1 (stereo not given),inactive: 4.71%
3,Nc1cccc2c([As](=O)(O)O)cccc12,active: 70%
4,CN(C(=O)Cc1ccc(Cl)c(Cl)c1)[C@H]1CCCC[C@@H]1N1CCCC1,inactive: 34.5%
5,C[N+]1=C2C=CC=CC=C2SC12C([N+](=O)[O-])=CC([N+](=O)[O-])=C[C-]2[N+](=O)[O-] (stereo not given),inactive: 26.2%
